Source: BindingDB's records for doi:10.1021/jm00128a043 (Wellcome Research Laboratories, 1989)

Tested on: Escherichia coli (whole organism, antibacterial activity)
Test: Antibacterial activity against Escherichia coli

Q: Which Ki does the source give for C=CCc1cc(Cc2cnc(N)nc2N)cc(OC)c1O here?
A: The Ki was 800 pM.

Q: How did the Ki turn out when CCCc1cc(Cc2cnc(N)nc2N)cc(OC)c1OC was run?
A: Its Ki is 400 pM.

Q: With C=CCc1cc(Cc2cnc(N)nc2N)cc(OC)c1OC as the compound, how does the Ki read?
A: The Ki was 1800 pM.
